The source of these data is PMC7356587, “Efficacy, Stability, and Safety Evaluation of New Polyphenolic Xanthones Towards Identification of Bioactive Compounds to Fight Skin Photoaging” (Molecules, 2020).

Amino acid sequences for entries named in this document (tags omitted). Residues count along the entry.
UniProt C7FF04, 2-392: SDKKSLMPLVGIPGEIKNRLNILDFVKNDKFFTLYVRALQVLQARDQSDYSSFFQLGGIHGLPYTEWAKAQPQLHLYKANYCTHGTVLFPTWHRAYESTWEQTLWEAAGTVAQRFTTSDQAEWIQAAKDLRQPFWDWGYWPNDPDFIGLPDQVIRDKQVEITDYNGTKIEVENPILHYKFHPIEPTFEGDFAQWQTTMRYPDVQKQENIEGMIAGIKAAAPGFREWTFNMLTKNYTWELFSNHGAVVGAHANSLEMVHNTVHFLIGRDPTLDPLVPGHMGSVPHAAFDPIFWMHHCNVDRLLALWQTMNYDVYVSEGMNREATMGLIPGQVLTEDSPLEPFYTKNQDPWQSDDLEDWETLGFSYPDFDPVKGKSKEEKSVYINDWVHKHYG

Marks after values point to notes of the source that are not given here.

One series addresses T1, elastase (Homo sapiens, UniProt P08246).
T1 construct: purchased Sigma-Aldrich
T1 sequence (P08246 30-267): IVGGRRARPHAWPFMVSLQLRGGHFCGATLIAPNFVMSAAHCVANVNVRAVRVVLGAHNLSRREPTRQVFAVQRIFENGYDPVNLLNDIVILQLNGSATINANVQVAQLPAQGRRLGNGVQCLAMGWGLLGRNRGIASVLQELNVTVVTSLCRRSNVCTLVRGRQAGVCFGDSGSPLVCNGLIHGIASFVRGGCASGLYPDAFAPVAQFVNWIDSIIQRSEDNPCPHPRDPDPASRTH
Put plainly: Elastase inhibition assay. In kind it is biochemical.

Another series deals with HaCaT cells. Kind of series: ROS generation assay (DCFH-DA). As to conditions: 12.5-200 µM, 24 h. It is filed as cell-based, human. As for the experimental part:
The HaCaT cells were maintained at 37 °C in a humidified atmosphere of 95% air and 5% CO2 in the incubator in dulbecco’s modified eagle’s medium (DMEM) with 10% fetal bovine serum (FBS) and 1% antibiotics. Using an inverted microscope, cell confluence was observed and if the cells reached 70–80% confluence, subculture was done to prevent cell death. For this purpose, the culture medium was aspirated and the cells were washed with dulbecco’s phosphate buffered saline (DPBS), 2 mL of trypsin-EDTA were added and incubated for 5–8 min at 37 °C in a 5% CO2 atmosphere. After cell detaching, medium was added in order to block the trypsin action and cell suspension was centrifuged at 416 g for 5 min. The supernatant was discarded, the pellet suspended in culture medium, and cells were counted. For cell counting: 50 μL of cell suspension were added to 50 μL of Trypan Blue vital dye […], resuspended, placed in a Neubauer chamber (Hirschmann, Germany) and the viable cells were counted. […]
Cells (2 × 10^4 cells/well) were seeded on 96-well tissue culture plates and incubated at 37 °C in a 5% CO2 atmosphere for 24 h. […] After incubation, the fluorescence was measured using a fluorescence plate reader with a baseline of 485 nm excitation and 530 nm emission. The study of the putative interference of compound and solvent fluorescence was previously performed. […]

The conditions of series [1]: cell-free system; cited from earlier work.
The target in the next series is tyrosinase (Agaricus bisporus, UniProt C7FF04). Put plainly: biochemical. As to conditions: read-out: Tyrosinase % Inhibition (150 µM).
Another series in a line: DPPH reduction assay. To be noted: IC50 not determinable, probably due to solubility issues. As for the experimental part:
The reduction of the stable DPPH free radical was measured by monitoring the change in absorbance at 517 nm. These experiments were made in a 96-well microplate. Compounds 1, 2 and 3 were dissolved in ethanol 70%, and compounds 4 and 5 were dissolved in a solution of ethanol 70% with 1% DMSO. In each experiment, the compounds were tested in the concentration range 0.7812 μM to 50 μM, in triplicate. For each sample concentration, a blank with ethanol 70%, instead of DPPH was made. Ascorbic acid was used as a positive control and tested in the same conditions. Blanks containing only ethanol 70% and control containing DPPH in ethanol 70% (190 μM) were used. The absorbance at 517 nm was measured in a microplate reader BioTek^TM Synergy HT (BioTeck Instruments, Vermont, USA) after 60 min of incubation in the dark with a temperature-controlled holder at 25 °C. The microplate was shaken before each reading.
The scavenging percentage of DPPH was calculated using the following equation:(1) %scavenging of DPPH=100×(1−Abssample+DPPH−Abssample blank/AbsDPPH−AbsEtOH)
The IC50 value for each sample and for the ascorbic acid was obtained by linear regression.

In the next series the test system is collagenase. Kind of series: Collagenase inhibition assay. In kind it is biochemical. As for the experimental part:
An adaptation of the method of Moore and Stein [40] with modifications by Mandl et al. was used to determine anticollagenase activity. To 2 mL test tubes was added: 25 μL of collagenase solution (0.8 U/mL), 25 μL TES buffer (50 mM) with 0.36 mM calcium chloride (pH 7.4) and 50 μL of test sample or the reference compound EDTA (with concentrations ranging between 9.4 and 150 μM). The tubes were incubated in a water bath at 37 °C for 20 min. Thereafter, 50 μL FALGPA (1 mM) solution was added to the tubes and incubated further for 60 min at 37 °C. To all tubes, 200 μL of a solution containing equal volumes of a 1.6 mg/mLTin chloride (II) solution in 200 mM citrate buffer (pH 5) and 50 mg/mL ninhydrin solution in DMSO was added. All tubes were placed in a water bath (100 °C) for 5 min and left to cool to room temperature before adding 200 μL of 50% isopropanol to each tube. Contents in the tubes were then transferred to respective wells in 96-well plates.

In general, inhibition refers to the drop in the measured response relative to a control, in per cent. Consider `O=c1c2ccccc2oc2ccc(O)c(O)c12` [Compound 1, 1,2-dihydroxy-9H-xanthen-9-one], for which the figures for the inhibition at 150 µM at elastase and on tyrosinase were 35.2 ± 1.84% and 96.17 ± 0.88%, respectively. In addition, the “ROS generation, fluorescence signal of DCFH-DA probe relative to solvent control” value with HaCaT cells is reported as “did not promote any significant increase”. Besides, the “scavenging activity of NO” value in series [1] was “did not show any scavenging activity”.
In the case of `Cc1cc(O)c2c(=O)c3c(O)cc(C)cc3oc2c1` [Compound 5, 1,8-dihydroxy-3,6-dimethyl-9H-xanthen-9-one], the maximum reduction activity result in “DPPH reduction assay” was “lower than 50%”.
Regarding `Cc1cc(O)c(O)c2oc3cc(O)ccc3c(=O)c12` [Compound 3, 3,4,6-trihydroxy-1-methyl-9H-xanthen-9-one], the inhibition at 150 µM at elastase worked out at 18.2 ± 0.71%; on tyrosinase it was 91.42 ± 0.23%. In addition, the “Collagenase % Inhibition (150 µM)” value with collagenase is on record as 24.91 ± 0.93 ^b %.
In the case of `Cc1cc(O)c(O)c2oc3ccccc3c(=O)c12` [Compound 2, 3,4-dihydroxy-1-methyl-9H-xanthen-9-one], the inhibition at 150 µM against elastase amounted to 10.8 ± 0.39%; at tyrosinase, 84 ± 1.87%.
